Measured values from patent US4818772A, “Derivatives of 4-aminoethoxy-5-isopropyl-2-methylbenzenes: methods of synthesis and utilization as medicines” (Societe Cortial S.A., priority 1981, dated 1989).
Read-outs that look alike come from different tables or passages of the source.

Tested on: unwashed human platelets
Test: Prevention of the aggregation of human platelets (plasma rich in platelets)
Format: cell-based
Settings: Platelet, read-out: I 50 (50% inhibition of platelet aggregation)
Protocol: The studies were carried out with platelets in their natural surroundings (plasma rich in platelets). The inhibiting agent was tested in the presence of four types of aggregating agents (ADP, adrenalin, collagen, arachidonic acid) at various concentrations.
For each case, a dose-response curve was established.

Which IC50 (ADP 1.25μM/l) does the source give for `Clc1ccccc1CN1CCc2sccc2C1` [Ticlopidine, reference compound] here?
Its IC50 is 10 µM.

What about the IC50 (ADP 2.5μM/l) of the same compound?
The IC50 was 50 µM.

And the IC50 (adrenalin 1μM/l)?
Its IC50 is 37 µM.

And the IC50 (adrenalin 5μM/l)?
The IC50 was 52 µM.

And the IC50 (collagen 50μg/ml)?
The IC50 was over 100 µM.
